The target of the experiment is Acetylcholinesterase (Homo sapiens, UniProt P22303). The experiment is described as follows: Acetylcholinesterase Inhibitory Assay. Conditions: pH 8; 25 °C. As for the experimental part:
Briefly, 140 μL of sodium phosphate buffer (pH 8.0), 20 μL of each tested compound with different concentrations (4, 20, and 100 μM) and 20 μL enzyme solution were mixed and incubated at room temperature for 15 min. The reactions were initiated by the addition of 10 μL of 0.01 M 5,5'-dithiobis(2-nitrobenzoic acid) (DTNB) and 10 μL of 0.075 ATCI. […] The reaction was independently experimented for three times and recorded in 96-well microplates using a microplate reader (VersaMax).

The chains behind the UniProt entries cited, without tags or fusion partners. Where a name states a change or a piece, a line headed by the entry shows the natural chain unless it says otherwise.
UniProt P22303: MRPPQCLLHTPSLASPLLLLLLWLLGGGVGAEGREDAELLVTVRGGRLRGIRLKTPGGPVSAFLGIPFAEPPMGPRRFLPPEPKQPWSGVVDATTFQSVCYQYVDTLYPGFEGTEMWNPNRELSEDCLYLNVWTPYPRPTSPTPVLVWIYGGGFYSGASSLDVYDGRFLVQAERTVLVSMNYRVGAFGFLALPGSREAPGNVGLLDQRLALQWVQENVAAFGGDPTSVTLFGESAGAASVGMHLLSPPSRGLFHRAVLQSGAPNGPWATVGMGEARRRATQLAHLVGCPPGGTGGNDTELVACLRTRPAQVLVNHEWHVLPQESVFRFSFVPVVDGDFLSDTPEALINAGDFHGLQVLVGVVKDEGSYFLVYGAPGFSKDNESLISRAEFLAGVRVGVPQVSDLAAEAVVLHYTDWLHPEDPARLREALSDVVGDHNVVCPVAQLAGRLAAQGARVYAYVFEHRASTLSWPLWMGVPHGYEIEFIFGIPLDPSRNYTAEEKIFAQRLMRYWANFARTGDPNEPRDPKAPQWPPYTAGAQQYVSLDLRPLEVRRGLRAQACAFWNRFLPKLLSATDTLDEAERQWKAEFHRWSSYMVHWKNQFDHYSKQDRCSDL

`COc1ccc2cc3[n+](cc2c1OC)CCc1cc2c(cc1-3)OCO2` [Berberinechloride] returned an IC50 of 770 nM.

The values above are taken from BindingDB's records for doi:10.7270/Q2Q52NH6 (Catholic University of Daegu, 2017).
